Assay results published in ChEMBL document CHEMBL5042533, “Structural Optimization and Structure-Activity Relationship Studies of 6,6-Dimethyl-4-(phenylamino)-6H-pyrimido[5,4-b][1,4]oxazin-7(8H)-one Derivatives as A New Class of Potent Inhibitors of Pan-Trk and Their Drug-Resistant Mutants” (J Med Chem, 2022).

Experiments:
[1] = system: BaF3; assay: cells; conditions: Mus musculus, BaF3, 72 h
[2] = system: BaF3; assay: cells; conditions: Mus musculus, BaF3, 72 h; remark: listed apart in the source

Structure (SMILES) | IC50 [1] [nM] | IC50 [2] [nM]
Cc1cc(NC(=O)Nc2cc(C(C)(C)C)nn2-c2ccccc2)ccc1Nc1ncnc2c1OC(C)(C)C(=O)N2 | 3 | 
Cc1cc(NC(=O)Nc2cc(C(C)(C)C)nn2-c2ccc(C(F)(F)F)cc2)ccc1Nc1ncnc2c1OC(C)(C)C(=O)N2 |  | 30
